# Laboratory results taken from patent US20250382306A1, “HETEROCYCLIC COMPOUND AS TAAR1 LIGAND AGONIST” (SHANDONG LUYE PHARMACEUTICAL CO., LTD., priority 2022, published 2025).
# By UniProt entry, the sequences of proteins in these tests, tags left out.
# UniProt Q96RJ0, whole entry: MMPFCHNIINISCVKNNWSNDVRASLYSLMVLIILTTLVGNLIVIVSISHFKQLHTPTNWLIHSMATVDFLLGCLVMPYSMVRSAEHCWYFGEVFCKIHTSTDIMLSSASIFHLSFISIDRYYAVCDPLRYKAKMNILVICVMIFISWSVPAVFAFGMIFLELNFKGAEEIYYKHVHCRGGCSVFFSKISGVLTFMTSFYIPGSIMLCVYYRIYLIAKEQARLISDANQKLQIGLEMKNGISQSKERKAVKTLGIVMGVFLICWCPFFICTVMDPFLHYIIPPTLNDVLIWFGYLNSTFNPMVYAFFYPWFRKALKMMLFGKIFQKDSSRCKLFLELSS
# Molecular target: TAAR1 (Homo sapiens, UniProt Q96RJ0)
# Assay: In vitro TAAR1 functional activity (cAMP Hunter CHO-K1 TAAR1 Gs cell line, HitHunter cAMP assay)
# Conditions: chemiluminescence cAMP readout
smiles,measurement,value
"CC(=O)c1ccsc1C1CNCCO1 (single isomer, unassigned)",EC50,> 10 µM
